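Compound exposure: 48 hours, 5 concentrations, 96-well plates. Here, GI50 denotes the concentration required for 50% inhibition of growth. TGI is the concentration that stops growth completely.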
Key:
Experiment in all cases: inhibition of tumour cell growth, NCI panel, 48 h
[1] = test system: A498 renal
[2] = test system: UO-31 renal
[3] = test system: NCI-H226 lung
[4] = test system: SF-268 CNS
[5] = test system: SF-539 CNS
[6] = test system: HL-60(TB) leukemia
[7] = test system: HCT-15 colon
[8] = test system: CCRF-CEM leukemia
[9] = test system: 786-0 renal
[10] = test system: OVCAR-3 ovarian
[11] = test system: KM12 colon
[12] = test system: OVCAR-8 ovarian
[13] = test system: HCC-2998 colon
[14] = test system: HT29 colon
[15] = test system: K-562 leukemia
[16] = test system: CAKI-1 renal
[17] = test system: SK-MEL-5 melanoma
[18] = test system: BT-549 breast
[19] = test system: MDA-N
[20] = test system: NCI-H522 lung
[21] = test system: TK-10 renal
[22] = test system: UACC-62 melanoma
[23] = test system: SN12C renal
[24] = test system: SNB-19 CNS
[25] = test system: MDA-MB-435
[26] = test system: NCI-H460 lung
[27] = test system: HCT-116 colon
[28] = test system: EKVX NSCLC
[29] = test system: MOLT-4 leukemia
[30] = test system: NCI/ADR-RES ovarian
[31] = test system: MALME-3M melanoma
[32] = test system: RXF 393 renal
[33] = test system: UACC-257 melanoma
[34] = test system: PC-3 prostate
[35] = test system: OVCAR-4 ovarian
[36] = test system: NCI-H322M lung
[37] = test system: M14 melanoma
[38] = test system: MCF7 breast
[39] = test system: HOP-62 NSCLC
[40] = test system: LOX IMVI melanoma
[41] = test system: SK-MEL-2 melanoma
[42] = test system: RPMI-8226 leukemia
[43] = test system: HS 578T breast
[44] = test system: OVCAR-5 ovarian
[45] = test system: COLO 205 colon
[46] = test system: SK-MEL-28 melanoma
[47] = test system: SW-620 colon
[48] = test system: IGROV1 ovarian
[49] = test system: SF-295 CNS
[50] = test system: ACHN renal
[51] = test system: SR leukemia
[52] = test system: U251 CNS
[53] = test system: A549 NSCLC
[54] = test system: T-47D breast
[55] = test system: SNB-75 CNS
[56] = test system: DU-145 prostate
[57] = test system: NCI-H23 lung
[58] = test system: SK-OV-3 ovarian
[59] = test system: MDA-MB-231 breast

Cn1c(=O)c([N+](=O)[O-])c(N=[N+]=[N-])c2ccccc21
GI50 [1]: 20.6 µM | TGI [1]: 38.7 µM | GI50 [2]: 1.82 µM | TGI [2]: 3.23 µM | GI50 [3]: 12.8 µM | TGI [3]: 32.6 µM | GI50 [4]: 3.8 µM | TGI [4]: 15.4 µM | GI50 [5]: 3.24 µM | TGI [5]: 9.82 µM | GI50 [6]: 0.326 µM | TGI [6]: 1.8 µM | GI50 [7]: 1.77 µM | TGI [7]: 3.37 µM | GI50 [8]: 0.447 µM | TGI [8]: 1.89 µM | GI50 [9]: 1.65 µM | TGI [9]: 3.06 µM | GI50 [10]: 1.78 µM | TGI [10]: 3.28 µM | GI50 [11]: 5.98 µM | TGI [11]: 18.8 µM | GI50 [12]: 2.38 µM | TGI [12]: 5.72 µM | GI50 [13]: 2.31 µM | TGI [13]: 6.22 µM | GI50 [14]: 1.74 µM | TGI [14]: 3.82 µM | GI50 [15]: 0.378 µM | TGI [15]: 2.3 µM | GI50 [16]: 0.933 µM | TGI [16]: 2.26 µM | GI50 [17]: 2.24 µM | TGI [17]: 5.29 µM | GI50 [18]: 1.94 µM | TGI [18]: 3.8 µM | GI50 [19]: 1.9 µM | TGI [19]: 3.8 µM | GI50 [20]: 0.496 µM | TGI [20]: 0.936 µM | GI50 [21]: 1.86 µM | TGI [21]: 3.57 µM | GI50 [22]: 1.72 µM | TGI [22]: 3.37 µM | GI50 [23]: 3.61 µM | TGI [23]: 12.7 µM | GI50 [24]: 17.2 µM | TGI [24]: 31.7 µM | GI50 [25]: 1.94 µM | TGI [25]: 4.43 µM | GI50 [26]: 10.8 µM | TGI [26]: 27.3 µM | GI50 [27]: 1.68 µM | TGI [27]: 3.05 µM | GI50 [28]: 2.33 µM | TGI [28]: 5.09 µM | GI50 [29]: 0.695 µM | TGI [29]: 2.44 µM | GI50 [30]: 8.68 µM | TGI [30]: 35.8 µM | GI50 [31]: 1.43 µM | TGI [31]: 2.81 µM | GI50 [32]: 1.75 µM | TGI [32]: 3.34 µM | GI50 [33]: 1.64 µM | TGI [33]: 3.45 µM | GI50 [34]: 2.52 µM | TGI [34]: 7.5 µM | GI50 [35]: 3.13 µM | TGI [35]: 9.29 µM | GI50 [36]: 17.1 µM | TGI [36]: 30.9 µM | GI50 [37]: 1.53 µM | TGI [37]: 3.12 µM | GI50 [38]: 1.88 µM | TGI [38]: 4.56 µM | GI50 [39]: 5.51 µM | TGI [39]: 11.1 µM | GI50 [40]: 1.78 µM | TGI [40]: 3.28 µM | GI50 [41]: 5.25 µM | TGI [41]: 17 µM | GI50 [42]: 2.5 µM | TGI [42]: 6.33 µM | GI50 [43]: 2.11 µM | TGI [43]: 5.13 µM | GI50 [44]: 11.6 µM | TGI [44]: 24 µM | GI50 [45]: 1.67 µM | TGI [45]: 3.34 µM | GI50 [46]: 1.2 µM | TGI [46]: 2.49 µM | GI50 [47]: 1.23 µM | TGI [47]: 2.58 µM | GI50 [48]: 1.87 µM | TGI [48]: 3.54 µM | GI50 [49]: 17.6 µM | TGI [49]: 32.7 µM | GI50 [50]: 1.87 µM | TGI [50]: 3.29 µM | GI50 [51]: 2.19 µM | TGI [51]: 5.15 µM | GI50 [52]: 10.3 µM | TGI [52]: 23.1 µM | GI50 [53]: 7.78 µM | TGI [53]: 24.5 µM | GI50 [54]: 2.08 µM | TGI [54]: 4.77 µM | GI50 [55]: 20.2 µM | TGI [55]: 38.2 µM | GI50 [56]: 13.3 µM | TGI [56]: 26.3 µM | GI50 [57]: 1.91 µM | TGI [57]: 4.11 µM | GI50 [58]: 19.1 µM | TGI [58]: 33.2 µM | GI50 [59]: 2.13 µM | TGI [59]: 4.09 µM
